# Reference: PubChem BioAssay (Tox21)
# Protein sequences, listed by entry. Tags and fused reporters are not part of them. Lines headed by an entry give the natural chain unless they say otherwise; changes in a name come on top.
# UniProt P28223, whole entry, looked up: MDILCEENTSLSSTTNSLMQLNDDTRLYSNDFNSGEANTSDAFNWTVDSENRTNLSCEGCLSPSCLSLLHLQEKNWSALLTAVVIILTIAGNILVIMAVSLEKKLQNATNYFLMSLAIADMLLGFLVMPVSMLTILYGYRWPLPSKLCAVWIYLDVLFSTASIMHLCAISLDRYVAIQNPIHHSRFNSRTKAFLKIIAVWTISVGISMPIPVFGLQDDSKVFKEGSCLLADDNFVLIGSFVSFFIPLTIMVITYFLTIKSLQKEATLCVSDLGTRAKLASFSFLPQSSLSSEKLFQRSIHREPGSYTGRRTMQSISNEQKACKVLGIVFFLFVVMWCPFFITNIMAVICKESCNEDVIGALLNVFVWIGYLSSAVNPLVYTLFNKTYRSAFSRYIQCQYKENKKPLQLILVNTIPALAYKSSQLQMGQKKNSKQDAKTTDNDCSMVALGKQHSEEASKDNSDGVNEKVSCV
# UniProt P11229: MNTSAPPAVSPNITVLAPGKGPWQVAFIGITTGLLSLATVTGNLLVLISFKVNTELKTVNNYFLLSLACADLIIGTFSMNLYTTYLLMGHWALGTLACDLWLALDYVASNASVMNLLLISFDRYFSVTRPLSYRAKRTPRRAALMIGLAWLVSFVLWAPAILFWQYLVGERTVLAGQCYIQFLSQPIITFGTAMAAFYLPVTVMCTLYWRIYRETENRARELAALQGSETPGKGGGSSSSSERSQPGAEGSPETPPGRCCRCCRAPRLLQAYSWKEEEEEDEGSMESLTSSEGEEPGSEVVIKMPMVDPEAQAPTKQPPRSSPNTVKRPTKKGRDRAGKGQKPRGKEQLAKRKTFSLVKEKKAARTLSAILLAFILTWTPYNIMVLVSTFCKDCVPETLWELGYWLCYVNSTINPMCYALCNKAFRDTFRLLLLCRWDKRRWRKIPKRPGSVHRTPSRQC
# UniProt P14416, whole entry, looked up: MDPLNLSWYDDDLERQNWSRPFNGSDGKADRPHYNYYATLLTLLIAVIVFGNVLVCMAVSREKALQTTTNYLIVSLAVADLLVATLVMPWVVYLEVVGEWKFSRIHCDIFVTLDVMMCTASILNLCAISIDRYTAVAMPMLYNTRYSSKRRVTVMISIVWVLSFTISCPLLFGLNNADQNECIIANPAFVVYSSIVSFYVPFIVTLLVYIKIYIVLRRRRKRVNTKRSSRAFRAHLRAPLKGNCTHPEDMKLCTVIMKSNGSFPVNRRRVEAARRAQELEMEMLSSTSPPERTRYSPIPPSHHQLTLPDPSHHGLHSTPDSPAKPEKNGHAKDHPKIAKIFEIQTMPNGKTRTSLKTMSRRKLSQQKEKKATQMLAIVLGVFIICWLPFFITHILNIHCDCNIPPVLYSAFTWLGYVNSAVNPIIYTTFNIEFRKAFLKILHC
# The list shows a part of the results, in another mix than the full data. Inconclusive results are not listed. Activity calls are given as the source filed them. Unless noted, calls follow the shape of the full dose curve.
# Tests used:
# [1] = molecular target: 5-hydroxytryptamine receptor 2A (Homo sapiens) (UniProt P28223); test: 5-hydroxytryptamine receptor 2A (HTR2A) small molecule antagonists, cell-based qHTS assay (AID 1963586); settings: HTR2A-CHO cells, DOI-induced calcium flux, fluorescence; also: nearly all actives have a fitted effect of over 45% in size
# Method in brief: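 CHO cells stably expressing human HTR2A were plated for 18 h at 37 C, then loaded with calcium dye for 1 h. Compounds were preincubated 5 min at room temperature before DOI (4 nM solution) was added. Kinetic fluorescence was read for 3 min.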
# [2] = molecular target: Muscarinic acetylcholine receptor M1 (Homo sapiens) (UniProt P11229); test: Cholinergic receptor muscarinic 1 (CHRM1) small molecule antagonists, cell-based qHTS assay (AID 1963588); settings: CHRM1-CHO antagonist mode, calcium flux fluorescence; also: nearly all actives have a fitted effect of over 40% in size
# Source text: (§1) National Center for Advancing Translational Sciences [NCATS]
# (§2) Division of Preclinical Innovation [DPI]
# (§3) U.S. Environmental Protection Agency [EPA]
# (§4) National Institutes of Environmental Health Sciences [NIEHS]
# (§5) National Toxicology Program [NTP]
# (§6) U.S. Food and Drug Administration [FDA]
# The CHRM1 is a muscarinic receptor. This receptor plays a crucial role in learning and memory processes and has long been identified as a promising therapeutic target for the improvement of cognitive decline in Alzheimer's disease (AD). The CHRM1-CHO cell line stably expressing human muscarinic acetylcholine receptor M1 (CHRM1) can be used for screening agonists and antagonists of interactions between CHRM1 and its ligands. The CHRM1-CHO Calcium Flux Assay is a homogeneous fluorescence-based assay for detecting the intracellular calcium level using FDSS kinetic plate reader system.
# (§7) Tox21 Assay Protocol Summary:
# CHRM1-CHO cells were dispensed at 1000 cells/3uL/well in 1536-well black-clear bottom plates using a Multidrop Dispenser. After the assay plates were incubated at a 37 C/5% CO2 incubator for 18 h, 3 uL of Dye Loading Buffer was transferred to the assay plate by a Flying Reagent Dispenser. […] The fluorescence intensity in the plates was measured using FDSS 7000EX kinetic plate reader for 3 min at 1 sec intervals. Each test compound was measured at 15 concentrations in three independent runs.
# [3] = molecular target: D(2) dopamine receptor (Homo sapiens) (UniProt P14416); test: Dopamine D2 receptor (DRD2) small molecule antagonists, cell-based qHTS assay (AID 1963595; active = well fitted inhibition curve with a large enough effect in the signal ratio in the repeat runs, with a control signal flat; the % refers to the signal ratio); settings: HEK293-DRD2 cAMP HTRF antagonist mode
# Source text: as §1, §2, §3, §4, §5, §6
# DRD2 is the D2 subtype of the dopamine receptor, which is coupled to Gi subtype of G protein-coupled receptor. This G protein-coupled receptor inhibits adenylyl cyclase activity. The DRD2-HEK293 cell line stably expressing D2 dopamine receptor can be used for screening agonists and antagonists of interactions between D2 and its ligands. The Hek293-DRD2 cAMP assay is based on HTRF technology. It measures changes of cAMP accumulation in response to Gi coupled GPCR activation or inhibition.
# as §7
# DRD2-Hek293 cells were dispensed at 600 cells/3uL/well in 1536-well white plates using a Multidrop Dispenser. After the assay plates were incubated at a 37 C/5% CO2 incubator for 24 h, 1 uL of Ro20-1724 at final concentration of 0.1 mM was transferred to the assay plate by a Flying Reagent Dispenser. Following Ro20-1724 addition, 23 nL of compound dissolved in DMSO, positive controls or DMSO only was added to the assay plates via Wako pintool station. […] The fluorescence intensity in the plates was measured at 340 nm excitation and 665 & 620 nm emission by an Envision plate reader.
# Potency is read from the fitted curve at half-maximal effect.
smiles,measurement,setting,value
CN1CCC(=C2c3ccccc3CCc3cccnc32)CC1,Potency,[1],active: 8.18 µM
CN(CCCN1c2ccccc2CCc2ccccc21)CC(=O)c1ccc(Cl)cc1,Potency,[2],active: 3.26 µM
CCN1CCC[C@H]1CNC(=O)c1c(O)c(Cl)cc(Cl)c1OC,Potency,[3],active: 335 nM
